# Laboratory results as given in PubChem BioAssay AID720580 (National Center for Advancing Translational Sciences (NCATS), 2013).
# In all, about 330,000 compounds went through this assay and about 1,500 (0.45%) were called active. Listed are the inconclusive results; actives and inactives stand elsewhere. Calls follow the shape of the full dose curve; tested in A549 cells.
# Test: qHTS for Stage-Specific Inhibitors of Vaccinia Orthopoxvirus: Venus Reporter Primary qHTS; also: nearly all actives have a fitted effect of over 30% in size
# Details: Vaccinia virus Venus reporter expression, fluorescence
# Potency is read from the fitted curve at half-maximal effect.
row,Structure (SMILES),Potency
1,C=C(C=O)C[C@@H]1C[C@H](O)C2OC3C[C@]4(C)OC5/C=C\CC6OC7C(CC=CCC6OC5CCCC4OC3CC2O1)OC1CC2OC3CC(=O)OC3C[C@@H](C)C[C@@]2(C)OC1C[C@@H]7C (some centres not stated),inconclusive: 10 µM
2,Cc1cc(SC(NC(=O)c2ccc(F)cc2)C(Cl)(Cl)Cl)ncn1 (configuration not stated),inconclusive: 22.4 µM
3,COc1ccc(O)c2c(=O)c3c(OC)cc4c(c3oc12)C1C=COC1O4 (configuration not stated),inconclusive: 3.55 µM
4,O=C(NC(Sc1ccncn1)C(Cl)(Cl)Cl)c1ccccc1 (configuration not stated),inconclusive: 28.2 µM
5,CC1=CC2OC3CC4OC(=O)/C=C/C=CC(C(C)O)OCC(O)C(C)CC(=O)OCC2(CC1O)C4(C)C31CO1 (configuration not stated),inconclusive: 0.282 µM
6,O=[N+]([O-])c1cc([N+](=O)[O-])c(CCNc2ccccc2)c([N+](=O)[O-])c1,inconclusive: 12.6 µM
7,CC(=O)NC(SC(=S)N(C)C)C(Cl)(Cl)Cl (configuration not stated),inconclusive: 12.6 µM
8,Cc1ccc(NCCc2c([N+](=O)[O-])cc([N+](=O)[O-])cc2[N+](=O)[O-])cc1,inconclusive: 11.2 µM
9,O=[N+]([O-])c1ccc(Nc2ccc(Oc3ccc([N+](=O)[O-])cc3[N+](=O)[O-])cc2)c([N+](=O)[O-])c1,inconclusive: 11.2 µM
10,Cc1cc(SC(NC(=O)c2ccccc2)C(Cl)(Cl)Cl)nc(C(C)C)n1 (configuration not stated),inconclusive: 28.2 µM
11,CSc1ccc(Nc2c([N+](=O)[O-])cc([N+](=O)[O-])cc2[N+](=O)[O-])cc1,inconclusive: 31.6 µM
12,CC(=O)OCC12CC(OC(=O)CC(C)C)C(C)=CC1OC1C(O)C(OC(C)=O)C2(C)C12CO2 (configuration not stated),inconclusive: 1.26 µM
